Data on 1 substance can be found in patent US20190298621A1, “METHODS OF TREATMENT OF THE DENTAL PULP AND FILLING ROOT CANALS USING ANTI INFLAMMATORY RINSE SOLUTION AND FILLING COMPOSITION” (DENTSPLY SIRONA Inc., priority 2018, published 2019).

The data set is described as follows: Anti-inflammatory agent solubility in solvents. The data set is classed as physicochemical. As for the experimental part:
An anti-inflammatory rinse solution was prepared by mixing anti-inflammatory agent in a solvent in which they are miscible in a vial under ambient conditions as shown in Table 2.

For the substance “D-α-Tocopherol polyethylene glycol 1000 succinate”, under “solvent in which the agent is miscible, ambient conditions”, the “Solvent (anti-inflammatory agent solubility in solvents)” value is “Water”. In addition, the solubility in water result (water) was “soluble in water”.
